Test [1] has as its target human plasma kallikrein (Homo sapiens (Human), UniProt P03952). Nature of the test: Determination of the plasma kallikrein activity (fluorogenic peptide substrate). It is filed as biochemical. Particulars: plasma kallikrein from Kordia, substrate H-Pro-Phe-Arg-AMC, 30 min at 22° C. As for the experimental part:
To determine the plasma kallikrein inhibition of the substances according to the invention, a biochemical test system is used which utilizes the reaction of a peptidic plasma kallikrein substrate to determine the enzymatic activity of human plasma kallikrein. Here, plasma kallikrein cleaves from the peptic plasma kallikrein substrate the C-terminal aminomethylcoumarin (AMC), the fluorescence of which is measured. The determinations are carried out in microtitre plates.
Test substances are dissolved in dimethyl sulphoxide and serially diluted in dimethyl sulphoxide (3000 μM to 0.0078 μM; resulting final concentrations in the test: 50 μM to 0.00013 μM). 1 μl of the diluted substance solutions is placed into each of the wells of white microtitre plates from Greiner (384 wells). 20 μl of assay buffer (50 mM Tris/HCl pH 7.4; 100 mM sodium chloride solution; 5 mM of calcium chloride solution; 0.1% of bovine serum albumin) and 20 μl of plasma kallikrein from Kordia (0.6 nM in assay buffer) are then added successively. After 15 min of incubation, the enzyme reaction is started by addition of 20 μl of the substrate H-Pro-Phe-Arg-AMC dissolved in assay buffer (10 μM in assay buffer) from Bachem, the mixture is incubated at room temperature (22° C.) for 30 min and fluorescence is then measured (excitation: 360 nm, emission: 460 nm). The measured emissions of the test batches with test substance are compared to those of control batches without test substance (only dimethyl sulphoxide instead of test substance in dimethyl sulphoxide), and IC50 values are calculated from the concentration/activity relationships.

Amino acid sequences for entries named in this document (tags omitted). Residues count along the entry.
UniProt P03952, 20-390 partner: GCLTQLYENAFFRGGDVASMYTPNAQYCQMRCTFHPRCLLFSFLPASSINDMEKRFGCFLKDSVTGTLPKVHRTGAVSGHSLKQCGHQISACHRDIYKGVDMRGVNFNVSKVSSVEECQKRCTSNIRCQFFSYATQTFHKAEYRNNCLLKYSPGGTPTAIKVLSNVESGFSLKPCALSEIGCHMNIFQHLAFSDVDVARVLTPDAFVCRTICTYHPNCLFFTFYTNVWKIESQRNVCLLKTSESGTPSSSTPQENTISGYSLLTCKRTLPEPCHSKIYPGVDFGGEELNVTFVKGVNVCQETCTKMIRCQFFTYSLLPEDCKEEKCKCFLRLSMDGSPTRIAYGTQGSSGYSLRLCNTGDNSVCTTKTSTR
UniProt P03952, 391-638: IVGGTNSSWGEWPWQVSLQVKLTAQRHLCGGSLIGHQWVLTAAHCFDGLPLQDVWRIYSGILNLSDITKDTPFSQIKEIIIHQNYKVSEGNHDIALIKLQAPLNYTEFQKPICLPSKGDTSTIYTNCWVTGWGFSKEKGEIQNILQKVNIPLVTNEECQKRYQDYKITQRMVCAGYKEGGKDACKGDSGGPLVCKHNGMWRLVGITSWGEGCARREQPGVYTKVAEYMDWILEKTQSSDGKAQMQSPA
UniProt P03951, 19-387 partner: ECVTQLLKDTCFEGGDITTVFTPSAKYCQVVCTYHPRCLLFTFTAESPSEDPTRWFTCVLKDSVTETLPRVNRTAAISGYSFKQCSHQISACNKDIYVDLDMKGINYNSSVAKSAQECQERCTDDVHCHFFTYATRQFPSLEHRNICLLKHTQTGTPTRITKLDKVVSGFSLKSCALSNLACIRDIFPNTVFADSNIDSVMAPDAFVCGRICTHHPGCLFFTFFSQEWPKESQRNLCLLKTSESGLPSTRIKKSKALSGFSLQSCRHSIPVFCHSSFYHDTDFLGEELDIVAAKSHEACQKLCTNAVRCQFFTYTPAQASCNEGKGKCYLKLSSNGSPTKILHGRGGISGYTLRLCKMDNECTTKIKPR
UniProt P03951, 388-625: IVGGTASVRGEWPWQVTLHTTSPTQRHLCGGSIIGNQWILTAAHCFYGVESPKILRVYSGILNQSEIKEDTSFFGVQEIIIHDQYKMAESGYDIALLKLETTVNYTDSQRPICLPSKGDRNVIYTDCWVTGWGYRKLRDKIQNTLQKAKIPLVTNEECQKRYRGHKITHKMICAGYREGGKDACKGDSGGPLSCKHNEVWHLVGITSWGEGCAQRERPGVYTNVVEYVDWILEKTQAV

Test [2] addresses human factor XIa (Homo sapiens (Human), UniProt P03951). The experiment in a line: Measurement of FXIa inhibition (fluorogenic peptide substrate). Particulars: factor XIa from Kordia, substrate Boc-Glu(OBzl)-Ala-Arg-AMC, 30 min at 22° C. It is filed as biochemical. As for the experimental part:
The factor XIa inhibition of the substances according to the invention is determined using a biochemical test system which utilizes the reaction of a peptidic factor XIa substrate to determine the enzymatic activity of human factor XIa. Here, factor XIa cleaves from the peptic factor XIa substrate the C-terminal aminomethylcoumarin (AMC), the fluorescence of which is measured. The determinations are carried out in microtitre plates.
1 μl of the diluted substance solutions is placed into each of the wells of white microtitre plates from Greiner (384 wells). […] After 15 min of incubation, the enzyme reaction is started by addition of 20 μl of the factor XIa substrate Boc-Glu(OBzl)-Ala-Arg-AMC dissolved in assay buffer (10 μM in assay buffer) from Bachem, the mixture is incubated at room temperature (22° C.) for 30 min and fluorescence is then measured (excitation: 360 nm, emission: 460 nm). The measured emissions of the test batches with test substance are compared to those of control batches without test substance (only dimethyl sulphoxide instead of test substance in dimethyl sulphoxide), and IC50 values are calculated from the concentration/activity relationships.

As a reminder, the IC50 is the concentration that gives 50% inhibition.

Each structure is given as a SMILES string.

`COCCC(C(=O)Nc1ccn2ncc(C(N)=O)c2c1)n1cc(OC)c(-c2cc(Cl)ccc2C#N)cc1=O` (racemic) [Example 4, 5-({2-[4-(5-Chloro-2-cyanophenyl)-5-methoxy-2-oxopyridin-1(2H)-yl]-4-methoxybutanoyl}amino)pyrazolo[1,5-a]pyridine-3-carboxamide (racemate)] gave an IC50 in test [1] of 2.7 nM.
In turn, `COCCC(C(=O)Nc1ccn2ncc(C(N)=O)c2c1)n1cc(OC)c(-c2cc(Cl)ccc2C#N)cc1=O` (single isomer, unassigned; enantiomer 1) [Example 5, 5-({2-[4-(5-Chloro-2-cyanophenyl)-5-methoxy-2-oxopyridin-1(2H)-yl]-4-methoxybutanoyl}-amino)pyrazolo[1,5-a]pyridine-3-carboxamide (enantiomer 1)] displayed an IC50 in test [1] of 0.8 nM. Compared with the last compound, the IC50 is about 3.4-fold lower.
In turn, `CCC(C(=O)Nc1ccn2ncc(C(N)=O)c2c1)n1cc(OC)c(-c2cc(Cl)ccc2C#N)cc1=O` (racemic) [Example 3, 5-({2-[4-(5-Chloro-2-cyanophenyl)-5-methoxy-2-oxopyridin-1(2H)-yl]butanoyl}amino)pyrazolo-[1,5-a]pyridine-3-carboxamide (racemate)] had an IC50 in test [1] of 11 nM.
For `CCCNC(=O)c1cnn2ccc(NC(=O)C(CCOC)n3cc(OC)c(-c4cc(Cl)ccc4C#N)cc3=O)cc12` (racemic) [Example 7, 5-({2-[4-(5-Chloro-2-cyanophenyl)-5-methoxy-2-oxopyridin-1(2H)-yl]-4-methoxybutanoyl}amino)-N-propylpyrazolo[1,5-a]pyridine-3-carboxamide (racemate)], half-maximal inhibition in test [2] (IC50) was put at 51 nM.

Source of the values: patent US10077265B2, “Substituted oxopyridine derivatives” (BAYER PHARMA AKTIENGESELLSCHAFT, priority 2014, dated 2018).
